IC50 data for three molecules are collected here from ChEMBL document CHEMBL3393009 (J Med Chem, 2015).

By UniProt entry, the sequences of proteins in these tests, tags left out. Where a name states a change or a piece, a line headed by the entry shows the natural chain unless it says otherwise.
UniProt Q5S007: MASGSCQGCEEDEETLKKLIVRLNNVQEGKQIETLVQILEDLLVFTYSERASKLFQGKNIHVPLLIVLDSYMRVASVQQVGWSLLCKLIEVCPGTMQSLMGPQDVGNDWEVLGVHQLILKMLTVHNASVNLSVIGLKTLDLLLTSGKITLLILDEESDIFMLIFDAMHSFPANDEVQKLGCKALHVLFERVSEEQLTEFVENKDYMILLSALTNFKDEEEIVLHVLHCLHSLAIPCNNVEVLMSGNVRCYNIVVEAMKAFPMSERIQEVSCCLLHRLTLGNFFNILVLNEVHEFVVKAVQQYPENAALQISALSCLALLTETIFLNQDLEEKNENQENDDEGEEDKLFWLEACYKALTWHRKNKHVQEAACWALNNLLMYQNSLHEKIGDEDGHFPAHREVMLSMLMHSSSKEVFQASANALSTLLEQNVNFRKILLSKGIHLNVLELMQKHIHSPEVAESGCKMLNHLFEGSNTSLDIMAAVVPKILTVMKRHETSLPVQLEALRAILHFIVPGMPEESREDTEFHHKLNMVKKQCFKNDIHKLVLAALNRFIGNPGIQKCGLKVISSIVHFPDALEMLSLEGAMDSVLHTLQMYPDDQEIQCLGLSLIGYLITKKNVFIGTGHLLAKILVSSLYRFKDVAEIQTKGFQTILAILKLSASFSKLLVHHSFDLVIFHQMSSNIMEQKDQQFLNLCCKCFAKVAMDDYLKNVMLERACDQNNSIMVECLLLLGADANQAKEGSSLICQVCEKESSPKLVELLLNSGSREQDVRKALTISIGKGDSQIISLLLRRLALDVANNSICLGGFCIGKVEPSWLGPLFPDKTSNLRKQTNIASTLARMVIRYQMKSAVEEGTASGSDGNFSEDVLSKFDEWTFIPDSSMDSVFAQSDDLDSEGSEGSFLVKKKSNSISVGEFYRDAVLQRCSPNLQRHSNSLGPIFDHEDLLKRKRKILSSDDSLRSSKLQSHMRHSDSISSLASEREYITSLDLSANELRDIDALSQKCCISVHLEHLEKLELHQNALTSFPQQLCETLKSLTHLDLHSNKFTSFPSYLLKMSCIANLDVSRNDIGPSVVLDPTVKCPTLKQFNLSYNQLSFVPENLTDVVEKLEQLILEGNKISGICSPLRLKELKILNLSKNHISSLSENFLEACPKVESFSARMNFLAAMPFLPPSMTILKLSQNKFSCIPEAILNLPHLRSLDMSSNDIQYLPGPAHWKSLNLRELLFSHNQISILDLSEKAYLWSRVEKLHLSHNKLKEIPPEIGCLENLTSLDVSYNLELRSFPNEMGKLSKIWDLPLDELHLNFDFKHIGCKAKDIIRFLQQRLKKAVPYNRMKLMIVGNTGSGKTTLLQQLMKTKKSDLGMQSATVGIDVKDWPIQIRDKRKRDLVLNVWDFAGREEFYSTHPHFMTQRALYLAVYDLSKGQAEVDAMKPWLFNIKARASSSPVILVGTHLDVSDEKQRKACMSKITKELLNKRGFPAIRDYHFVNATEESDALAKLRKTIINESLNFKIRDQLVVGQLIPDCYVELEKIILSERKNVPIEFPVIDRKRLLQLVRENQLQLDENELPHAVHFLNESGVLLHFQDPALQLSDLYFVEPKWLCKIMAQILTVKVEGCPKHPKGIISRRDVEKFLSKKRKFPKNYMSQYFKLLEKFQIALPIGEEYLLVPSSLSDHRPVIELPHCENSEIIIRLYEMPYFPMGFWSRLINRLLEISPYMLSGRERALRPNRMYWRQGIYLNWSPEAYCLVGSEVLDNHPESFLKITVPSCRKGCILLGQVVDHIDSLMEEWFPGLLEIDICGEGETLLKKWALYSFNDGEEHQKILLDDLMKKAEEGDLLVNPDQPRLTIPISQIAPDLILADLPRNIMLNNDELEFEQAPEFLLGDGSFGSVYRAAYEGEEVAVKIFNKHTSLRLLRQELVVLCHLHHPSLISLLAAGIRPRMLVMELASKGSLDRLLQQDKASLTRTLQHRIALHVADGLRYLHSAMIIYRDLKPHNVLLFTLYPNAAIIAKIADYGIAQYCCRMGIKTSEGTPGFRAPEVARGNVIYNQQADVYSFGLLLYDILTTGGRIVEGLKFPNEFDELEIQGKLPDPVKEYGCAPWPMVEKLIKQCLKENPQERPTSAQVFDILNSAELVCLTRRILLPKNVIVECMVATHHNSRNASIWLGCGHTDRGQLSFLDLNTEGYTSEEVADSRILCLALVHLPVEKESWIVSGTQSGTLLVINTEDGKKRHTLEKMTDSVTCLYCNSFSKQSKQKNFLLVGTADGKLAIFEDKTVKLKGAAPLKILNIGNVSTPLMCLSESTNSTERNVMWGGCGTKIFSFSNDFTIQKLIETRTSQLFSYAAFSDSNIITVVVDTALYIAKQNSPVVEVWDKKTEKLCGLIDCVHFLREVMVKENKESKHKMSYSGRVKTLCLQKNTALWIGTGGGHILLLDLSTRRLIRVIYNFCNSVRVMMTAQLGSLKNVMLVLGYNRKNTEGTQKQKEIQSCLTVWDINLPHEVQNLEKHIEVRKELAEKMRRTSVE

Broadly, the IC50 is the point on the concentration scale where inhibition reaches its midpoint.

In assay [1] the target is T1, Leucine-rich repeat serine/threonine-protein kinase 2 (Homo sapiens, UniProt Q5S007). Put plainly: Inhibition of full length LRRK2 (unknown origin) expressed in HEK293 cells assessed as reduction in S935 phosphorylation incubated for 90 mins by ELISA method. The format is cell-based. An outline of the steps:
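HEK293 cells transiently transfected with full-length LRRK2 (Lipofectamine 2000), then grown overnight in DMEM + 10% FBS. Plated at 10 000 cells/well and treated with a compound dose series for 90 min at 37 °C. Lysed with phosphatase/protease inhibitors. LRRK2 captured with anti-LRRK2 antibody, detected with anti-pS935 (1:2000) plus HRP secondary, chemiluminescent read-out. Geometric mean, n ≥ 2.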
For orientation: ELISA stands for enzyme-linked immunosorbent assay.

The target of assay [2] is T1, Leucine-rich repeat serine/threonine-protein kinase 2. Put plainly: Inhibition of GST-tagged truncated human recombinant LRRK2 using fluorescein-labeled LRRKtide peptide substrate incubated for 2 hrs. An outline of the steps:
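LRRK2 enzyme with fluorescein-LRRKtide in 50 mM HEPES pH 7.5, 3 mM MgCl2, 2 mM DTT, 0.01% Brij35. Final levels: 100 nM LRRKtide, 50 μM ATP, 1.7 μg/mL enzyme. Compound 11-point half-log series, top 32 μM. Reaction at room temperature, 2 h for wild type and 90 min for mutant. Stopped with EDTA plus Tb anti-phospho-ERM. TR-FRET 520/495 ratio read after 1 h. Geometric mean, n ≥ 2.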

Assay [3] deals with T2, Serine/threonine-protein kinase 3 (Homo sapiens, UniProt Q13188).
T2 sequence (Q13188 whole entry): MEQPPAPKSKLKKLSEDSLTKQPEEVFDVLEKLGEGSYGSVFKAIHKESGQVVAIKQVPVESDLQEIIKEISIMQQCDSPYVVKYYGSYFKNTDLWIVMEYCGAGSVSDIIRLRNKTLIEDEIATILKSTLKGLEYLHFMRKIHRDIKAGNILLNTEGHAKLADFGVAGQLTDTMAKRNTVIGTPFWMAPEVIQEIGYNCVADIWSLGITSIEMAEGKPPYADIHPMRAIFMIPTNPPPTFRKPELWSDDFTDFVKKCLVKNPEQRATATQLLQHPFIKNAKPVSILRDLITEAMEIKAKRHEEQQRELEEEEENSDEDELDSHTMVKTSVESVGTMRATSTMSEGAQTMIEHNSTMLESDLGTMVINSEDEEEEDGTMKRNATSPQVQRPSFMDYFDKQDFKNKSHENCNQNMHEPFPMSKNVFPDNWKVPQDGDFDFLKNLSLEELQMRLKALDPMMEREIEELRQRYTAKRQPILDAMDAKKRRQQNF
Put plainly: Inhibition of human recombinant MST2 using Ser/Thr peptide 7 substrate after 45 mins by Z-Lyte assay. An outline of the steps:
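Z-Lyte FRET assay, final 2 μM Ser/Thr peptide 7, 75 μM ATP, 18 nM kinase. Buffer 50 mM HEPES (pH 7.0 for MST2, 7.5 for MST4), 10 mM MgCl2, 1 mM EGTA, 0.01% Brij-35. Stopped at 45 min (MST2) or 60 min (MST4). Excitation 400 nm, emission 445/520 ratio converted to percent phosphorylation for IC50.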

Consider `Cc1nc([C@@H]2CN(c3ncnc4[nH]cc(-c5cccc(C#N)c5)c34)CCO2)no1`, for which the IC50 in assay [1] worked out at 133 nM.
Turning to `Cc1nc([C@H]2CN(c3ncnc4[nH]cc(-c5cccc(C#N)c5)c34)CCO2)no1`, the IC50 in assay [2] amounted to 204 nM.
For `N#Cc1cccc(-c2c[nH]c3ncnc(N4CC5CCOC5C4)c23)c1` (stereo not given), the values for the half-maximal inhibitory concentration (IC50) in assay [2], in assay [1] and in assay [3] were 139 nM, 3690 nM and 626 nM, respectively.
